According to article PMC9541495, “Understanding the interaction of 14‐3‐3 proteins with hDMX and hDM2: a structural and biophysical study” (The Febs Journal, 2022):

Legend:
14‐3‐3η [1] = biological target: T1, 14‐3‐3η (human, UniProt Q04917 1-246); assay: SPR; 14-3-3η immobilised on an NTA sensor chip (Ni2+ capture and amine coupling, about 2000 RU); acetylated peptides injected, 11 serial dilutions from 10x the FA Kd; 25 °C; Biacore T200; multicycle kinetics fitted to a Langmuir model, Kd from steady state dose-response; details: both partners purified
T1 construct: 14-3-3 eta, human, full-length protein from the pProEx HTb-His-14-3-3 construct; Captured on an NTA chip in SPR; source: E. coli BL21(DE3), purified (Ni2+-NTA, dialysis)
T1 sequence (looked up): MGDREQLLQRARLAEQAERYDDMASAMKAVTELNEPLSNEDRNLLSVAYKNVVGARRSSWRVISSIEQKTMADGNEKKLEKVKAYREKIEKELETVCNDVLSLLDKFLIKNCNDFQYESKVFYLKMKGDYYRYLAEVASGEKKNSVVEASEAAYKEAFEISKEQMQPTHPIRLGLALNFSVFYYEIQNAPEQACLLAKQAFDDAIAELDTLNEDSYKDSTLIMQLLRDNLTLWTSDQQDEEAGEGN

14‐3‐3η [2] = biological target: T1, 14‐3‐3η; assay: ITC; acetylated peptide in the syringe titrated into 14-3-3η in the cell; 25 °C; 25 mM HEPES pH 7.5, 100 mM NaCl, 10 mM MgCl2, 0.5 mM TCEP; MicroCal iTC200; details: both partners purified

- Kd (14‐3‐3η [1]): 155 nM
- Kd (14‐3‐3η [2]): 151 ± 57 nM
B1: Ac‐hDM2_(160‐192) ^pSer166/pSer186 (peptide)
peptide: SRRRAISETEENSDELSGERQRKRHKSDSISLS
modifications: phosphoserine at 166 and at 186; N-terminal acetyl; C-terminal amide
notes: hDM2 (human double minute 2 protein), human, residues 160-192; Acetylated form used for ITC and SPR; source: synthetic peptide (Fmoc SPPS on Rink amide ProTide resin, HPLC purified)
